# Results published in publication PMC9970875.
# B1: HLA-DRB1: 250 µM FUTi (2F-peracetyl-fucose) (protein)
# parent chain: MVCLKLPGGSCMTALTVTLMVLSSPLALSGDTRPRFLWQPKRECHFFNGTERVRFLDRYFYNQEESVRFDSDVGEFRAVTELGRPDAEYWNSQKDILEQARAAVDTYCRHNYGVVESFTVQRRVQPKVTVYPSKTQPLQHHNLLVCSVSGFYPGSIEVRWFLNGQEEKAGMVSTGLIQNGDWTFQTLVMLETVPRSGEVYTCQVEHPSVTSPLTVEWRARSESAQSKMLSGVGGFVLGLLFLGAGLFIYFRNQKGHSGLQPTGFLS
# B2: HLA-DRB1: 250 µM l-fuc (protein)
# parent chain: B1 parent chain
# Assays:
# [1] = flow cytometry of cell surface HLA-DRB1, melanoma lines; conditions: glycan changed form; control: DMSO
# [2] = immunoblot of total HLA-DRB1 protein; conditions: glycan changed form; control: DMSO
Protein,localisation_or_trafficking [1],expression_or_secretion [2]
B1,decreases,no change
B2,increases,no change
